In assay [1] the target is T1, Adenosine receptor A2b (Homo sapiens, UniProt P29275).
T1 sequence (P29275 whole entry): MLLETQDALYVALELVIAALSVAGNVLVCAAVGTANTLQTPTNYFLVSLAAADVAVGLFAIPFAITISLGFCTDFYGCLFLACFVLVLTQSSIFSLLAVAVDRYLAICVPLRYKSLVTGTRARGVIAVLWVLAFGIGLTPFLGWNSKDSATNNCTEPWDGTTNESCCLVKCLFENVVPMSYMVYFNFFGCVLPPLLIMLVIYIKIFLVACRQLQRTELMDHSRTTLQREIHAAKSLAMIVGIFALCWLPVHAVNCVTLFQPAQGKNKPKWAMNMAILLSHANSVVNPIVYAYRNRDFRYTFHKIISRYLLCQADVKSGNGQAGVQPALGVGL
As to the kind of experiment: Displacement of [125I]ZM-241385 from human recombinant adenosine A2B receptor expressed in HEK293 cells. It counts as cell-based.

Assay [2] concerns the target T1, Adenosine receptor A2b. As to the kind of experiment: biochemical.
The target in assay [3] is T1, Adenosine receptor A2b. As to the kind of experiment: Displacement of [3H]PSB-603 from human recombinant adenosine A2B receptor expressed in CHO cells. It counts as cell-based.
Assay [4] deals with T1, Adenosine receptor A2b. As to the kind of experiment: biochemical. The source holds these as a separate data set.

A word on the Ki: it is a measure of affinity in units of concentration, obtained from inhibition or displacement.

For `Nc1nc2ccc(Cl)cc2c2nc(-c3ccco3)nn12` [CGS-15943], the inhibition constant Ki in assay [1] turned out to be 0.0164 µM; in assay [2] it was 0.0342 µM; in assay [3], 0.03 µM; in assay [4], 0.0098 µM.
